From PMC3016232 (Cancer Chemotherapy and Pharmacology, 2010)

Conditions: human, in vivo

With `CCc1c2c(nc3ccc(O[C@@H]4O[C@H](C(=O)O)[C@@H](O)[C@H](O)[C@H]4O)cc13)-c1cc3c(c(=O)n1C2)COC(=O)[C@]3(O)CC` [SN-38G] the “increase of mean SN-38G AUC with methimazole compared to without” value was 67%.
